Source: patent publication US12257294B2, “Therapeutics for autoimmune disease: synthetic antigens” (DANMARKS TEKNISKE UNIVERSITET, priority 2018, dated 2025)

Tested on: NZB/W mice
Assay: Toxicity study in vivo in NZB/W mice (IL-19, KIM-1 ELISA)
Conditions: IV, 10 nM; blood sample 36 h after initial administration
Description: Nine-week-old NZB/W mice were kindly provided by Heegaard group, Statens Serum Institute, Denmark; ten mice (all females) were kept in sterile boxes covered by a filter and fed sterile water and food. The mice were grown for 10 weeks and reached weight 17-19 g in average. The mice were bled before the experiment to check for the presence of anti-dsDNA antibodies (a-dsDNA) by standard ELISA. Only those with a-dsDNA in titer 1:1000-1:12000 were used for this study. The nanoconjugate complexes were added to the tail vein. Nanoconjugate complex was administrated using IV in 1×PBS, applying the nanoconjugate complex at 160 μg/kg animal weight for 10 nM concentration. Blood samples were withdrawn 36 hours after initial administration and subjected to analysis of IL-19 and KIM-1 using commercial ELISA kits (The Quantikine human IL 19 kit, R&D Products, USA; KIM 1 ELISA kit ADI-900-226-0001, ENZO Life Sciences, USA), following manufacturers protocols.

Q: Which results are given for Gentamicin?
A: NZB/W: IL-19 (plasma): 78 pg/mL; NZB/W: KIM-1 (plasma): 2.05 ng/mL
